Assays:
[1] = species: Homo sapiens; assay: Selectivity ratio of Ki for delta opioid receptor (unknown origin) to Ki for kappa opioid receptor (unknown origin)
[2] = molecular target: Kappa-type opioid receptor (Homo sapiens, UniProt P41145); assay: Displacement of [3H]U69593 from kappa opioid receptor (unknown origin)
How it was run: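 Competition radioligand binding. Ki was determined against [3H]DAMGO for MOR, [3H]DADLE for DOR and […] for KOR. Values are the mean of three experiments, each run in duplicate.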

Protein sequences, listed by entry. Tags and fused reporters are not part of them. Lines headed by an entry give the natural chain unless they say otherwise; changes in a name come on top.
UniProt P41145: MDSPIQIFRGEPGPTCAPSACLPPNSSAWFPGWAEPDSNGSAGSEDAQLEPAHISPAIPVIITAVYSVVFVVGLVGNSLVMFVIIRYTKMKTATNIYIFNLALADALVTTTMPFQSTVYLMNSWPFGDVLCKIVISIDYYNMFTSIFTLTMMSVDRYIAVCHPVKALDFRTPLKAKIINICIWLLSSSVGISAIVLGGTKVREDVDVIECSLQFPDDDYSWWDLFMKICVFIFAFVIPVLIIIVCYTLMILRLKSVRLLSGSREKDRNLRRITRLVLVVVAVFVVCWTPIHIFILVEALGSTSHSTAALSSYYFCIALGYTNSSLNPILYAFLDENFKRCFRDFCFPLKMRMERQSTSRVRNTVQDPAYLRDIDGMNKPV

Row | SMILES | Ratio Ki [1] | Ki [2] [µM]
1 | COC(=O)[C@@H]1C[C@H](OC(=O)CCC(=O)O)C(=O)[C@H]2[C@@]1(C)CC[C@H]1C(=O)O[C@H](c3ccoc3)C[C@]21C | > 2 | 
2 | COC(=O)[C@@H]1C[C@H](O)C(=O)[C@H]2[C@@]1(C)CC[C@H]1C(=O)O[C@H](c3ccoc3)C[C@]21C [SALVINORIN B] |  | > 10
